scFv variants of Ab-91 (heavy chain) against a SARS-CoV-2 spike peptide

Binding partner: SARS-CoV-2 spike HR2 peptide, sequence PDVDLGDISGINAS.

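The library (AAYL51) carries one to three amino acid substitutions per variant, with no insertions or deletions. Affinity was read by AlphaSeq, a pooled yeast mating assay with surface-displayed partners. Binding brings cells together so that they mate, and sequencing counts the barcode pairs among the diploids. Scores were corrected for input abundance and mapped to Kd with protein pairs of known affinity run in the same pool. Mating was done three times.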

Parent scFv Ab-91: VL joined to VH by a 15-residue (Gly4Ser)3 linker. Changes lie in the heavy chain CDRs alone.
VL: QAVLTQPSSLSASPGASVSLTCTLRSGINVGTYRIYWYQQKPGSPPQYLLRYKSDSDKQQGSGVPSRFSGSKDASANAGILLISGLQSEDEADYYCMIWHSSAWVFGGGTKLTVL
VH: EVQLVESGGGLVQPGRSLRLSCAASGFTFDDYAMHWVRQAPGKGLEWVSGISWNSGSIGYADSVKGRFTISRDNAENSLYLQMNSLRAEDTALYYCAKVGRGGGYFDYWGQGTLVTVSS

Positions count from residue 1 of the parent VH; D31G puts G in place of D.
Values are log10 of the apparent Kd in nM; lower means stronger binding.
The mean shown is taken over the replicates in which the pair was detected.
Where no diploid with the target was found in any replicate, the entry reads "nd": below detection, most likely a poor binder, though not proof of it.
As a blank, each scFv also met three strains without target: over library AAYL51, 21% of these pairings were detected, typically at 4.54 and seldom below 3.26.
For reference, the parent read 1.86 as the reference entry and 0.88 as a member of this library.

| # | changes | mean log10 Kd (nM) | replicates with signal |
|---|---|---|---|
| 1 | D31G+G50C+A61N | nd | 0/3 |
| 2 | G56W+V99N | 5.62 | 2/3 |
| 3 | I51C+R101Y+G103L | nd | 0/3 |
| 4 | N54H+G56L+Y60E | nd | 0/3 |
| 5 | R101S+G103C | 3.81 | 1/3 |
| 6 | A33D+G59W+F106S | nd | 0/3 |
| 7 | G50V+S52K+V99C | nd | 0/3 |
| 8 | S55G+V99Q+G100P | 1.65 | 3/3 |
| 9 | F27H+G56D+Y60N | 5.19 | 3/3 |
| 10 | I51V+A61S+V64E | nd | 0/3 |
| 11 | D31I+S55N+G59P | nd | 0/3 |
| 12 | G100R+R101T+F106D | 4.40 | 1/3 |
| 13 | A33F+N54Y+D107H | 5.80 | 1/3 |
| 14 | W53D+R101H+G104H | 3.79 | 1/3 |
| 15 | A33Y+G102M+D107S | 4.19 | 2/3 |
| 16 | F27W+F29V+I51F | nd | 0/3 |
| 17 | Y32H+N54E+V99P | nd | 0/3 |
| 18 | G26N+R101N+D107W | 4.62 | 3/3 |
| 19 | Y32I+S57I+K65F | 4.47 | 1/3 |
| 20 | G26Q+G50I+G104F | nd | 0/3 |
| 21 | G26R+G50M+S63C | nd | 0/3 |
| 22 | F29I+S63E+Y108I | 0.93 | 3/3 |
| 23 | H35T+V99L+G103E | nd | 0/3 |
| 24 | G50E+I51Q+S57I | 5.18 | 2/3 |
| 25 | N54Q+S63K+R101D | 3.19 | 3/3 |
| 26 | D31E+G50R+G103P | nd | 0/3 |
| 27 | G102R+F106E | nd | 0/3 |
| 28 | D30Y+H35S+V99F | 5.62 | 1/3 |
| 29 | F29V+D30N+S55D | 3.91 | 1/3 |
| 30 | I51F+D62Q+Y108P | 4.97 | 2/3 |
| 31 | D31N+G104N+D107A | 0.17 | 3/3 |
| 32 | Y32F+G56Y+S57Q | 2.12 | 3/3 |
| 33 | H35N+Y60S+Y105H | nd | 0/3 |
| 34 | I51R+S57R+K65C | nd | 0/3 |
| 35 | F27N+S52G+Y105V | nd | 0/3 |
| 36 | S52F+G103Q+Y105C | 5.61 | 1/3 |
| 37 | M34T+H35F+S55Y | 4.41 | 2/3 |
| 38 | S55H+I58T+K65V | 1.24 | 3/3 |
| 39 | A33C+V99G+Y108I | 5.25 | 3/3 |
| 40 | H35R+G59F+G102C | 4.94 | 1/3 |
| 41 | D30Q+I51V+I58T | 1.12 | 3/3 |
| 42 | Y32W+G100V+Y108L | nd | 0/3 |
| 43 | D30I+D31E+G50D | 4.72 | 2/3 |
| 44 | G26C+M34I | nd | 0/3 |
| 45 | S52A+V99E+R101V | 2.03 | 3/3 |
| 46 | T28Q+S57A | 1.42 | 3/3 |
| 47 | T28F+Y60H+D62I | 4.67 | 1/3 |
| 48 | D30A+G50R+I58Y | nd | 0/3 |
| 49 | K65S+V99N+Y108P | 5.43 | 2/3 |
| 50 | Y32E+A61S+R101M | nd | 0/3 |
| 51 | F29D+Y32R+W53H | 4.98 | 2/3 |
| 52 | K65R+G104Y+Y108Q | 4.19 | 1/3 |
| 53 | Y32P+A33R+D107N | 5.98 | 1/3 |
| 54 | S55P+K65Y+G102N | 4.93 | 1/3 |
| 55 | Y32I+G100C+G103C | 5.50 | 1/3 |
| 56 | D30E+S55Y | 3.49 | 2/3 |
| 57 | A33R+G104T+Y105M | 4.28 | 2/3 |
| 58 | N54F+S63H+F106S | nd | 0/3 |
| 59 | D107F+Y108A | 2.42 | 3/3 |
| 60 | T28S+G59M+S63C | 4.89 | 3/3 |

Reference: Engelhart et al. 2022, doi:10.1038/s41597-022-01779-4. File: FLAb, binding data.